Reference: publication PMC9667534, “Insertion of Nanoluc into the Extracellular Loops as a Complementary Method To Establish BRET-Based Binding Assays for GPCRs” (ACS Pharmacology & Translational Science, 2022)

By UniProt entry, the sequences of proteins in these tests, tags left out. Where a name states a change or a piece, a line headed by the entry shows the natural chain unless it says otherwise.
UniProt P11229: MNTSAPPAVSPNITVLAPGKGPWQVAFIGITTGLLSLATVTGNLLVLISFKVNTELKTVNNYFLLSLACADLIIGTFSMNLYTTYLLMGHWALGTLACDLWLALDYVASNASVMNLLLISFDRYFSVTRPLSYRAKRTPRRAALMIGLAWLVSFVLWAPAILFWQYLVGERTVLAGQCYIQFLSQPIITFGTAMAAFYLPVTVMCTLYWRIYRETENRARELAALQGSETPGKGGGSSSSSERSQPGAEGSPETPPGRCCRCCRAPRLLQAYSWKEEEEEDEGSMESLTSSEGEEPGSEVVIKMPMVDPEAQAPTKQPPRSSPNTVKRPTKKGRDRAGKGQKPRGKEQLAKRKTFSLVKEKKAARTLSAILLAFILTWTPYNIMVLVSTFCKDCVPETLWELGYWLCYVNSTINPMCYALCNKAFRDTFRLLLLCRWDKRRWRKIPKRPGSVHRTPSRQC
UniProt P25929, whole entry: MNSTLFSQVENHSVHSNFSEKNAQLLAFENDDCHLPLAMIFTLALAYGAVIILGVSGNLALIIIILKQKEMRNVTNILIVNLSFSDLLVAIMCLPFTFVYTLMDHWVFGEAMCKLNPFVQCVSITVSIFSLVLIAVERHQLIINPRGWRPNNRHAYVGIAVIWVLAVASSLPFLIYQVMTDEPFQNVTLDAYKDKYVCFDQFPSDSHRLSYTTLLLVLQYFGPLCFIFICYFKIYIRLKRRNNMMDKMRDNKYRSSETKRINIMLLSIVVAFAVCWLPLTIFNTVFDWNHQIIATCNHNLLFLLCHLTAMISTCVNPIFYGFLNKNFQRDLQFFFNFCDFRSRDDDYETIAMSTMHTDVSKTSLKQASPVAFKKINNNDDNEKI

Columns and labels:
Nluc-M1R(G176) = Nluc-M1R(G176) (Homo sapiens, UniProt P11229); test: biochemical
M1R = conditions: different expression systems, ref 54-67 (per cell); cited from earlier work
Nluc-Y1R(Q291) = Nluc-Y1R(Q291) (Homo sapiens, UniProt P25929); test: BRET competition binding with fluorescent ligand 1; conditions: 1 c = 0.5 nM

## C=CC[N@@+]12CC[C@@]34c5ccccc5N5/C=C6/[C@H]7C[C@H]8[C@@]9(CC[N@@+]8(CC=C)C/C7=C/CO)c7ccccc7N(/C=C(/[C@@H](C[C@@H]31)/C(=C\CO)C2)[C@H]54)[C@@H]69 [alcuronium, Alcuronium]
Nluc-M1R(G176)
  Ki: 10.2 µM

## N-methyl scopolamine [NMS]
M1R
  reference values (literature): 9.49–10.22[55],[62],[66]

## porcine neuropeptide Y [pNPY]
Nluc-Y1R(Q291)
  displacement of fluorescent tracer 1: not able to displace the fluorescent tracer
